Test: Stability (half-life) of JNK inhibitors in human serum, UPLC-MS
Method: The experiment was performed as described by Tugyi et al. (Proc Natl Acad Sci USA, 2005, 413-418). The remaining intact peptide was quantified by UPLC-MS.

Sequence: GRKKRRQRRRPPRPKRPTTLNLFPQVPRSQD [SEQ ID NO: 196]
- sensitivity to proteolytic degradation (general statement in the introduction): quickly proteolytically degraded
- time until totally degraded into amino acids residues (human serum (50%; 10 and 50% in PBS 1×), 0.1 mM peptide): ≤ 6 h

From patent publication US8981052B2, “JNK inhibitor molecules” (Xigen Inflammation Ltd., priority 2010, dated 2015)
